The numbers were not newly measured in patent US11535824B2, “Nuclear transfer” (Sung Kwang Medical Foundation, priority 2015, dated 2022), which cites them from elsewhere.

As usually defined, the IC50 is the concentration that inhibits the measured activity by half.

Molecules are shown by their SMILES.

This series has as its target T1, G9a (KMT1C) (Homo sapiens, UniProt Q96KQ7).
T1 sequence (Q96KQ7 1-1210): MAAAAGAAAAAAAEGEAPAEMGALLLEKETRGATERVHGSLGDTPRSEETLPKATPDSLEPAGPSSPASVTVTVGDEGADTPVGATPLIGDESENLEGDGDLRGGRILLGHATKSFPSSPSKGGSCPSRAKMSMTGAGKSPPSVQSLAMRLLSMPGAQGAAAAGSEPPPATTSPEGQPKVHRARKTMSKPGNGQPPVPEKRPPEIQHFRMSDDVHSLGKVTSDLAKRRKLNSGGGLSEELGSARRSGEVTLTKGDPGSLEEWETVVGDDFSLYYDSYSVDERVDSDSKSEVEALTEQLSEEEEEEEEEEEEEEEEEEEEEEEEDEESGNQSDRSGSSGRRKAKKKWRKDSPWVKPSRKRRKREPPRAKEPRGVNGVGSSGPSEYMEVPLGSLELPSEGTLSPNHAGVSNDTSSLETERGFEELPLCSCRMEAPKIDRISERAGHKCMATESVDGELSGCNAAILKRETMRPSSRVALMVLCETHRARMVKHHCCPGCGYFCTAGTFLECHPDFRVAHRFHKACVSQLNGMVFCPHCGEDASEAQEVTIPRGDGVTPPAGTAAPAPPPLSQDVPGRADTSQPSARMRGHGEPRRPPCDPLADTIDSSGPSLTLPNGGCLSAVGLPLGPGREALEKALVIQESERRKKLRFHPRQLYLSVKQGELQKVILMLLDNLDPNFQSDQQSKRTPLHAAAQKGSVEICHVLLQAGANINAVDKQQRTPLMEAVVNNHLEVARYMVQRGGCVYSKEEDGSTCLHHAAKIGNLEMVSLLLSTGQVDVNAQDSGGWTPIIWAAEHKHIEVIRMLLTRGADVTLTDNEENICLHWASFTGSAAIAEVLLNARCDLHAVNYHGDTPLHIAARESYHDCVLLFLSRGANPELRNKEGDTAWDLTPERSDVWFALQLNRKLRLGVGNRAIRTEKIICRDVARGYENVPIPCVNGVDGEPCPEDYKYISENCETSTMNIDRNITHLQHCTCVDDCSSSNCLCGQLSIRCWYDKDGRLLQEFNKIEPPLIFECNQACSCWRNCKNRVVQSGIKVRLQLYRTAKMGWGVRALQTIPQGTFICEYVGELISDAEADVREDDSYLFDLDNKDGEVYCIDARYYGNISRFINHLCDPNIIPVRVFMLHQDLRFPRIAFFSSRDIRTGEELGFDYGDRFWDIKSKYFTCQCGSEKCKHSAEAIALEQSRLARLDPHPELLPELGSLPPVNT
The following applies: unit inferred; cited from earlier work.

Take `COc1cc2c(NC3CCN(C)CC3)nc(N3CCCN(C)CC3)nc2cc1OCCCN(C)C` [UNC0224]: the IC50 was 15 nM.
